Test results published in US20070043512A1, “Therapeutic and prophylactic compositions and uses therefor” (priority 2003, published 2007).

Tested on: aP2 gene expression
Assay: Real-time PCR, aP2 gene expression in NHBE cells
Type: cell-based, human
Conditions: NHBE (HBE) cells, stimuli for 18 h, real-time PCR (FIG. 2)
Procedure: When NHBE cells were 80% confluent and between passage 7 and 8, they were washed in PBS (Gibco) and starved for 24 h in Clonetics bronchial epithelial cell basal medium (BEBM) containing 0.1% w/v BSA. The cells were then exposed to the following stimuli: 10 ng/ml IL-4 (BD), 10 ng/ml IL-13 (BD), 10 ng/ml IL-1β (Peprotech), 20 ng/ml IL-3 (BD), 5 ng/ml IL-6 (BD), 10 ng/ml IL-10 (BD), 28 ng/ml interferon-γ (BD), 10 ng/ml TNFα (Peprotech), 50 ng/ml phorbol myristate acetate (PMA; Sigma) or 100 ng/ml LPS (Sigma).
Total RNA was isolated from cells using the RNeasy Total RNA Isolation Kit (Qiagen, Chatswort, Calif.) or Trizol (Invitrogen, CA) as per the manufacturer's instructions. […]
After an initial denaturation for 10 min at 95° C., the samples were run for 40 cycles at 95° C. […] At the end of each cycle, the fluorescence was measured in a single step in channel F1. […] The temperature was then raised to 95° C. at a rate of 0.1° C./sec and fluorescence was measured continuously (channel F1) to obtain a melting curve for the PCR products. Each gene was normalized to a housekeeping gene GAPDH before fold change was calculated (using crossing point values) to account for variations between different samples. […]
Using the same RNA samples as were used for the microarray experiments, aP2 gene expression was analysed using real-time PCR. […]

B1: IL-3: cytokine stimulus, 20 ng/ml (BD) (protein, UniProt P08700 20-152, looked up)
Interleukin-3: APMTQTTPLKTSWVNCSNMIDEIITHLKQPPLPLLDFNNLNGEDQDILMENNLRRPNLEAFNRAVKSLQNASAIESILKNLLPCLPLATAAPTRHPIHIKDGDWNEFRRKLTFYLKTLENAQAQQTTLSLAIF
Effect on aP2 expression: no effect
